Sequences of proteins named here, by UniProt entry; tags and fusion partners are left off. Residues count along the entry.
UniProt P15056, 416-766: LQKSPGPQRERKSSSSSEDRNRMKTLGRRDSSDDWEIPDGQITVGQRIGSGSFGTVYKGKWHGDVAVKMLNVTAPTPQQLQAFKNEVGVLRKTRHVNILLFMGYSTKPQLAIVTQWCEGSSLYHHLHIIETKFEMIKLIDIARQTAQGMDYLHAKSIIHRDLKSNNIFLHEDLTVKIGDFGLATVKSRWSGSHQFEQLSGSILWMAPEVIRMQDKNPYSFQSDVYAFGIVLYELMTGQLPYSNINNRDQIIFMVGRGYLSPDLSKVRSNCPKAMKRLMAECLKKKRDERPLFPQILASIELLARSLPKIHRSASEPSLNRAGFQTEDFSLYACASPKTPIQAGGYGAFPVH
UniProt P04049, 307-648 Y340D/Y341D: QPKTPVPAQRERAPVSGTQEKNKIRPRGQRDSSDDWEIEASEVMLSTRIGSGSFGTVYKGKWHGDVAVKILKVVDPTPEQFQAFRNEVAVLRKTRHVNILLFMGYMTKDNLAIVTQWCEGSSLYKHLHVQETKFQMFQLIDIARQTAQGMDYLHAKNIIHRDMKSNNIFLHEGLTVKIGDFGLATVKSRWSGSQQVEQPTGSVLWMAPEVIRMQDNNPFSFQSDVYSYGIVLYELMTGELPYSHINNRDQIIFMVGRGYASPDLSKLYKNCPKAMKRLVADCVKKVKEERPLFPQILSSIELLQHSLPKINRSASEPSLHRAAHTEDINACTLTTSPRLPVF

According to patent US20260176279A1, “DUAL RAF AND TUBULIN INHIBITORS AND METHODS OF USE THEREOF” (Deciphera Pharmaceuticals, LLC, priority 2023, published 2026):

What was measured:
B-Raf kinase = B-Raf kinase (Homo sapiens, UniProt P15056); test: Biochemical Assay for B-Raf (coupled pyruvate kinase/lactate dehydrogenase assay); details: read-out: BRAF; Table 1, inhibition of biochemical activity
C-Raf kinase = C-Raf kinase (Homo sapiens, UniProt P04049, Y340D/Y341D); test: Biochemical Assay for C-Raf (coupled pyruvate kinase/lactate dehydrogenase assay); details: read-out: CRAF; Table 1, inhibition of biochemical activity
MiaPaca-2 cells = test: MiaPaca-2 Cell Proliferation Assay; details: read-out: MiaPaca-2; Table 2, inhibition of cell proliferation
HCT-116 cells = test: HCT-116 Cell Proliferation Assay; details: read-out: HCT-116; Table 2, inhibition of cell proliferation
HPAF-II cells = test: HPAF-II Cell Proliferation Assay; details: read-out: HPAF-II; Table 2, inhibition of cell proliferation

Measured: pIC50

Cc1ccc(NC(=O)Nc2ccc(C(F)(F)F)nc2)cc1-c1cc(OCCO)nc(C2CCOCC2)c1
> 7.00: all assays above

pIC50: −log10 of the molar value.
